Molecules are shown by their SMILES.

Sequences of proteins named here, by UniProt entry; tags and fusion partners are left off. A change or cut given only in a name is not applied to a line headed by its entry.
UniProt Q12809: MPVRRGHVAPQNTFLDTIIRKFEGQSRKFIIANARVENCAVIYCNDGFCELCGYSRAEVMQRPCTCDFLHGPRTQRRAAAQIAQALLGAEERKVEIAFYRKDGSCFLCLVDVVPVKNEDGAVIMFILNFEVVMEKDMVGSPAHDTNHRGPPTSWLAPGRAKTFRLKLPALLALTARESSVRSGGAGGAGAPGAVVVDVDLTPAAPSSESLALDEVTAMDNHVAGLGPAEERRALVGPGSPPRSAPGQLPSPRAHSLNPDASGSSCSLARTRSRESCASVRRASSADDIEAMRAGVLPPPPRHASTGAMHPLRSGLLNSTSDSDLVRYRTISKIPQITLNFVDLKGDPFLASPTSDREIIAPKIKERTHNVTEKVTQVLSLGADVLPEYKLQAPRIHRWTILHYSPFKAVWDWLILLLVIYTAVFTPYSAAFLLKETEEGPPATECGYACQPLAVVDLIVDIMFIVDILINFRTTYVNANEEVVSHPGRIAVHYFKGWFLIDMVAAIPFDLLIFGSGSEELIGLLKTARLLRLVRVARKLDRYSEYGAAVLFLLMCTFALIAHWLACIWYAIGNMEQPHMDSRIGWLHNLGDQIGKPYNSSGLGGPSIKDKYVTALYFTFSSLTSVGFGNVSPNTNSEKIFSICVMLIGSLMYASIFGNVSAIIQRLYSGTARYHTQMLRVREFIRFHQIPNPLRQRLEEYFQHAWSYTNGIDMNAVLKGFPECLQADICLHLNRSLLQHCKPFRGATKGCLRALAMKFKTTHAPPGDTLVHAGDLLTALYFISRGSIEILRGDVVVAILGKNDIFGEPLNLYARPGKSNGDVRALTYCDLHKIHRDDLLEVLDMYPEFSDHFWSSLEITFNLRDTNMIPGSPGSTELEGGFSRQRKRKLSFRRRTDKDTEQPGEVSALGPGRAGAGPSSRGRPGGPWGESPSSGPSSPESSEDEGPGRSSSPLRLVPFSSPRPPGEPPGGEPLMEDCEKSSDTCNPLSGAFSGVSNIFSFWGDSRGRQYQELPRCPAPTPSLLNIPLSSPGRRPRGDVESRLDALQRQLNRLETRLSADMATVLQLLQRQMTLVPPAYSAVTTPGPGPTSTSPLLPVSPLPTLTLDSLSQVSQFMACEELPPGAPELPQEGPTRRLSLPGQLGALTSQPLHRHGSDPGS

The assay addresses T1, cloned human hERG channel (Homo sapiens, UniProt Q12809).
T1 construct: expressed in transfected cells; host or cells: HEK cells
Kind of assay: hERG current block in HEK cells, whole-cell patch clamp. The format is cell-based. The note with it: HEK cells expressing cloned human hERG channel, 37±1° C., peak current at −40 mV; read-out: hERG (μM), IC50 for inhibition of hERG. Here is the method: Electrophysiological measurements of hERG current were made in vitro to assess the hERG block produced by the phenyloin conjugates. hERG currents were measured in HEK cells expressing the cloned human hERG channel using the whole-cell variant of the patch clamp method. Experiments were performed at 37±1° C. hERG current was elicited by a step pulse to +10 mV for 500 ms from a holding potential of −75 mV, followed by a pulse to −40 mV for 500 ms. Peak current was measured from the pulse to −40 mV. Six concentrations of each test compound were added to the cell in a cumulative manner starting with the lowest test concentration. Each cell served as its own control and data are presented as % reduction of current amplitude achieved in the presence of drug.

One may read the IC50 as the concentration that gives 50% inhibition. Consider `O=C1NC(=O)C(c2ccccc2)(c2ccccc2)N1` [Phenytoin, 5,5-diphenylhydantoin, reference compound], for which the IC50 was determined as 96.4 µM.

Values taken from patent publication US9540330B2, “Oligomer-containing hydantoin compounds” (Nektar Therapeutics, priority 2010, dated 2017).
